# Measured affinities in a library of Ab-14 heavy chain variants

From the AlphaSeq antibody data of Engelhart et al. 2022 (doi:10.1038/s41597-022-01779-4), copy in the FLAb collection.

The target is the same throughout: PDVDLGDISGINAS, from the HR2 region of SARS-CoV-2 spike.

Parent: Ab-14, a human scFv built as VH, a 15-residue (Gly4Ser)3 linker, VL. Only the CDRs of the heavy chain vary.
VH: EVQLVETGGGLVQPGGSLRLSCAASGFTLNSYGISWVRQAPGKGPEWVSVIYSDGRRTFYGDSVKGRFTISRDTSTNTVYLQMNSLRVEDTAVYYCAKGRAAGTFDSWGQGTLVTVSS
VL: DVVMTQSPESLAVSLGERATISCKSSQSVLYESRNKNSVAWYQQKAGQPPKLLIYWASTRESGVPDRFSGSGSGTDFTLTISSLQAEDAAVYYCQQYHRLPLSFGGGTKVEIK

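The parent was found by panning a naive human phage display library on the peptide. In library AAYL49, one, two or three CDR residues were substituted; doubles and triples were drawn at random. AlphaSeq pools MATa yeast showing the antibodies with MATalpha yeast showing the peptide. Binding brings cells together so that they mate, and sequencing counts the barcode pairs among the diploids. Read counts were normalised to the haploid input and turned into Kd by a linear fit to BCL2-family pairs of known affinity, for each replicate. Mating was done three times.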

Variants are written as CDR1, CDR2 and CDR3 of the heavy chain (limits as in the source). Parent: GFTLNSYGIS, VIYSDGRRTFYGDSVK, GRAAGTFDS.
The read-out is the apparent dissociation constant on a log10 scale (nM): the lower, the stronger.
A pair that was not seen in that replicate is written "ND"; this usually means weak binding, but a binder can also be missed.
Parent in this assay: reference entry 0.65, copy in this library 4.11 (one replicate of three).
Empty control strains, which show no peptide, gave a signal in 15% of pairings with library AAYL49; the median was 4.06 and 95% of these signals were weaker than 2.83. No background was subtracted. For each scFv, signals with the empty controls are counted beside the result, with their mean in brackets.

CDR-H1 | CDR-H2 | CDR-H3 | log10 Kd (nM) by replicate | empty controls
GFCLNSYGIS | VIYSDGCRTFYGDSVK | GRAAHTFDS | 4.17 / ND / ND | 6/9 (4.80)
GFTLNSYGIS | VIYSDGRRTNYHDSVK | GRAAGTFDS | 0.80 / 0.81 / 1.00 | 1/9 (5.09)
GFTLCSYGIS | VIYSDGRRWFYGDSVI | GRAAGTFDS | 5.70 / 4.96 / ND | 2/9 (3.96)
GFTLNSYGIS | VIYSDGRRRFYGDSVI | GRNAGTFDS | 3.26 / 2.40 / ND | 1/9 (3.02)
GFTLNSYGIS | VIYSDGRMTFYGDSVK | GRAAGNFFS | ND / ND / ND | 2/9 (3.80)
GFTCNSYGIS | VIYSDGRRAFYGDSVK | GRAAGTFDS | ND / ND / 6.01 | 1/9 (4.49)
GFTGNKYLIS | VIYSDGRRTFYGDSVK | GRAAGTFDS | ND / ND / ND | 0/9
GFTLNSLGIS | VIYSDGRRTCYGDSVK | GRAAGTFRS | ND / 3.01 / ND | 3/9 (3.50)
GFTLNSRGIS | VIYSDGRRTFYGDSVK | GRAAGTFDE | ND / 5.11 / 5.78 | 6/9 (4.36)
GFTLNSYGIS | VYYADGRRTFYGDSVK | GRAHGTFDS | 4.09 / 5.01 / 6.62 | 5/9 (4.48)
GFTLNSYGIS | VIYLDGRRTFYSDTVK | GRAAGTFDS | ND / 4.04 / 3.60 | 5/9 (4.62)
GFTLNSYGIS | VIYSDGRRTFYGDFVD | GRAAGTFDS | 1.50 / 1.06 / 1.23 | 1/9 (3.50)
GFTLNSYGIS | VGYSEGRRTWYGDSVK | GRAAGTFDS | ND / ND / ND | 1/9 (4.22)
GFTLNSDGIS | VIYSDGRRTFYGDMVK | GRAAETFDS | ND / 3.87 / ND | 0/9
GFTLQSYGIS | VGYFDGRRTFYGDSVK | GRAAGTFDS | 2.98 / ND / ND | 2/9 (4.04)
GFTLNSYGIS | VQYSDGRRTFYGDSVK | GSAAGTMDS | ND / ND / ND | 0/9
GFTLNSYGIN | VIYSDGRRTFYGDPVK | GRAAGTFKS | ND / ND / ND | 1/9 (4.41)
GFTLNEYGID | VIYSDGRRTFYGDHVK | GRAAGTFDS | ND / ND / 3.42 | 1/9 (4.99)
GFTNNSYGIS | VIYSDGRRTFYGDSVK | GRAAGPFDS | ND / 3.56 / ND | 1/9 (4.00)
GFTLNSYGIS | VIYSRGRRTFYGPSVK | GRAAGGFDS | 5.89 / 4.91 / 3.85 | 7/9 (4.47)
GFTLNSYGIS | VIYSDGRRTEYGDSVH | GRAFGTFDS | 3.72 / 2.83 / 2.96 | 8/9 (4.25)
GFTFNRYGIS | VIYSDGRRTFYGDSVH | GRAAGTFDS | ND / ND / ND | 0/9
GFTLMDYGIS | VIYSDGRRTFYGDSVK | GRAAGTFLS | 0.94 / 1.13 / 1.26 | 2/9 (4.63)
GFTLDSYGIS | VIYSDGRETFYGDSVK | GRAAGTFDN | ND / ND / ND | 0/9
GFTLNSYGIS | VIYSGGRRTFYGPSVH | GRAAGTFDS | ND / ND / ND | 2/9 (3.53)
GFTLNSYGIK | VIYSDGRRMFYRDSVK | GRAAGTFDS | ND / ND / ND | 1/9 (3.13)
GFTSNVYGIS | VIYSDGRRTFYGDSVK | GRAAGTFDS | ND / 2.97 / ND | 2/9 (3.12)
GFTLNFYGIS | VIYSSGRRGFYGDSVK | GRAAGTFDS | ND / ND / ND | 0/9
GFTLNSYGIS | VIYEDGRRTFYGHSVK | GRAAGTFDS | ND / ND / ND | 1/9 (3.25)
GFTLRSYPIS | VIYSGGRRTFYGDSVK | GRAAGTFDS | ND / ND / ND | 1/9 (1.43)
GFALNSYGIS | VIISDGRRQFYGDSVK | GRAAGTFDS | 4.65 / ND / ND | 1/9 (1.91)
GFDRNSYGIS | VIYSDGRRTFYGDSVK | GRAAWTFDS | ND / 4.13 / 4.07 | 1/9 (4.13)
GFTLNSYGIK | VIYSDGRRTVYGDSVK | GRAAGTHDS | ND / ND / 5.45 | 3/9 (4.15)
GFTLNSYGIS | VIYSDWRRTFYGDSVK | PRMAGTFDS | ND / ND / ND | 1/9 (3.29)
GFTLNSYGHS | VIYSDGCRTFYGDSVK | GRAAKTFDS | 4.47 / 3.54 / ND | 5/9 (4.21)
GFTLNSYGIS | VIYSDGRHTFYGDSVK | GRAMGTFNS | ND / 5.41 / 4.19 | 3/9 (4.78)
GFTLNHYGIS | VPYSDGRRTFYGDSVK | GRAAGTFMS | ND / ND / ND | 0/9
GFTLNSYGIS | YIYSDGRREFYGDSVK | GRASGTFDS | ND / ND / ND | 0/9
GFTLNDYGIS | VIYSDDRRTFYGDSVK | GRAAGTFQS | ND / ND / ND | 0/9
GFTLNSYGIS | VKYSDGRRTFYGDRVK | GRAAHTFDS | 4.63 / 4.11 / ND | 3/9 (4.65)

Extract of 3 entries:

{"CDR-H1": "GFALNSYGIS", "CDR-H2": "VIISDGRRQFYGDSVK", "CDR-H3": "GRAAGTFDS", "log10 Kd (nM) by replicate": "4.65 / ND / ND", "empty controls": "1/9 (1.91)"}
{"CDR-H1": "GFTLNSYGIS", "CDR-H2": "VIYSDGRRTEYGDSVH", "CDR-H3": "GRAFGTFDS", "log10 Kd (nM) by replicate": "3.72 / 2.83 / 2.96", "empty controls": "8/9 (4.25)"}
{"CDR-H1": "GFTFNRYGIS", "CDR-H2": "VIYSDGRRTFYGDSVH", "CDR-H3": "GRAAGTFDS", "log10 Kd (nM) by replicate": "ND / ND / ND", "empty controls": "0/9"}